{"sequences": {"note": "Sequences of proteins named here, by UniProt entry; tags and fusion partners are left off.", "UniProt A0R2W9, whole entry": "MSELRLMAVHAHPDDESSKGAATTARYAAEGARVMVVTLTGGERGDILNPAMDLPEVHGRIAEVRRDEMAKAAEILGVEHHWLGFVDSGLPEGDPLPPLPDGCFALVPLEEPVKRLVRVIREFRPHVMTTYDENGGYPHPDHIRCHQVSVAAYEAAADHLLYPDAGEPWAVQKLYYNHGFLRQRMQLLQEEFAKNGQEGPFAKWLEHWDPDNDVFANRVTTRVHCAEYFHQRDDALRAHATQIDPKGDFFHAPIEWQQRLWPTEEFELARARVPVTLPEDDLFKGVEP"}, "source": "patent US7642280B2", "about": "“Inhibitors of acyl glucosaminyl inositol amidase and methods of use” (The Regents of the University of California, priority 2001, dated 2010)", "key": {"[1]": {"target": "Mycobacterium smegmatis mycothiol-S-conjugate amidase (MCA) (Mycolicibacterium smegmatis, UniProt A0R2W9)", "experiment": "Fluorescence-based HPLC IC50 assay, wild type M. smegmatis MCA with natural MSmB", "conditions": "read-out: IC50 M. smeg; wild type M. smegmatis MCA approx. 20 nM, 30 μM natural MSmB, 20 min, 31° C."}, "[2]": {"target": "mycothiol S-conjugate amidase (MCA) (Mycolicibacterium smegmatis, UniProt A0R2W9)", "experiment": "Fluorescence-detected HPLC assay of MCA cleavage of MSmB (50 μM MSmB as substrate), Examples 1 and 3"}}, "note": "Like-named read-outs stand apart in the source and are kept apart here.", "data": [{"smiles": "N=C(N)NCCCCNC(=O)C(Cc1cc(Br)c(OCCCN)c(Br)c1)=NO", "values": [{"measurement": "IC50", "setting": "[1]", "result": 3, "unit": "µM"}]}, {"smiles": "NCCCOc1c(Br)cc(CC(=NO)C(=O)NCCc2cnc(N)[nH]2)cc1Br", "values": [{"measurement": "IC50", "setting": "[2]; read-out: concentration that inhibited mycothiol S-conjugate amidase by 50%", "result": 3, "unit": "µM"}]}, {"smiles": "CN(C)CCCOc1c(Br)cc(CCN(C)C)cc1Br", "values": [{"measurement": "inhibitory activity against MCA (in words)", "setting": "[2]; absence of cleavage product AcCys-bimane", "result": "ineffective"}, {"measurement": "IC50", "setting": "[2]; read-out: IC50 amidase inhibition (Example 3, FIG. 6)", "result": "> 1000", "unit": "µM"}]}]}
